Experimental data: paper PMC10407255, “Comparison of activity, structure, and dynamics of SF-1 and LRH-1 complexed with small molecule modulators” (The Journal of Biological Chemistry, 2023)

Amino acid sequences for entries named in this document (tags omitted).
UniProt Q13285, whole entry: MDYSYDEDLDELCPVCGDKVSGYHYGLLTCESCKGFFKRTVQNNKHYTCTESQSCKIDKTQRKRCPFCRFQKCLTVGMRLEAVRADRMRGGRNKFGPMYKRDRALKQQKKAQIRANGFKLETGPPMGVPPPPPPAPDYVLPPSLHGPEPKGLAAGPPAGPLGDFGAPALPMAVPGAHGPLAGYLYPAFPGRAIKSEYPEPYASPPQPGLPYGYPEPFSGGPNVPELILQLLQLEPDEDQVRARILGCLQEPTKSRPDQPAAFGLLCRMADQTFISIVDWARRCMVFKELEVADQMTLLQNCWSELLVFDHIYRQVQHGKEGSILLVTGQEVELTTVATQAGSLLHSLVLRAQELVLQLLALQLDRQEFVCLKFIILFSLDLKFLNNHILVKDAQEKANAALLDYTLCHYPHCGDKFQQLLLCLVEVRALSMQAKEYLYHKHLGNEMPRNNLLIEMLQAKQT
UniProt O00482, whole entry: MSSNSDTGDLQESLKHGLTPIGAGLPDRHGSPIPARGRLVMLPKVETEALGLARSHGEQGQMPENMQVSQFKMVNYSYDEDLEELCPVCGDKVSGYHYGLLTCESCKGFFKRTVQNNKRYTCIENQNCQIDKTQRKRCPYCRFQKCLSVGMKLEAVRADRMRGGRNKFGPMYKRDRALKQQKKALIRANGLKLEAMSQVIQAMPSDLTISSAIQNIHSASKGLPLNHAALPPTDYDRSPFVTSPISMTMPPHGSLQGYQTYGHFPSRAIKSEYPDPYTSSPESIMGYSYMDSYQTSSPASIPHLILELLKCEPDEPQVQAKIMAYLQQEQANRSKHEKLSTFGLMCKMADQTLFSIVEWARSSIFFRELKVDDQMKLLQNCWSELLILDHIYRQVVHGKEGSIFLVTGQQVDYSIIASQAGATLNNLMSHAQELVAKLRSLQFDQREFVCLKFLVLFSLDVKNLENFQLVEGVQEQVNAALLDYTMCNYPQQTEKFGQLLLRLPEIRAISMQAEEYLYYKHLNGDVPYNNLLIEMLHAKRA

Key:
[1] = biological target: T1, SF-1 (Homo sapiens, UniProt Q13285); experiment: Luciferase reporter assay, SF-1, HeLa cells; format: cell-based; conditions: small molecule at 0.1, 1, and 10 μM, relative to DMSO control
T1 construct: expressed in transfected cells; host or cells: HeLa
Procedure: (§1) Reporter assays were conducted as described previously ([47], [52], [53]). Briefly, HeLa cells were seeded at ∼7500 to 10,000 cells per well in 96-well plates (white-walled, clear bottom) in MEMα + 10% FBS – charcoal/dextran treated. Once cells reached 80 to 90% confluence, they were transfected with LRH-1 (in pCI vector, 5 ng/well) or SF-1 (in pcDNA vector, 5 ng/well), a reporter plasmid with an NR5A response element derived from the SHP promoter cloned upstream of Firefly Luciferase (in pGL3-Basic vector, 50 ng/well), and a plasmid expressing Renilla Luciferase constitutively from a CMV promoter (1 ng/well). Cells were transfected with FuGENE at a ratio of 3:1 (FuGENE:DNA). Twenty-four hours after transfection, compounds were diluted in Opti-MEM and introduced to cells at the final concentrations indicated in figures (final DMSO concentration was 0.37%). Luciferase signal was measured after ∼24 h using the DualGlo kit (Promega) with a BioTek Neo plate reader. Each experiment was conducted with three biological replicates, each with three technical replicates averaged prior to data analysis. Firefly Luciferase signal for each well was divided by the well’s Renilla Luciferase signal intensity and then normalized relative to the DMSO control. Data were analyzed with GraphPad Prism (version 9) using a stimulating dose–response curve (Hill slope = 1).

[2] = biological target: T2, LRH-1 (Homo sapiens, UniProt O00482); experiment: Luciferase reporter assay, LRH-1, HeLa cells; format: cell-based; conditions: small molecule at 0.1, 1, and 10 μM, relative to DMSO control
T2 construct: expressed in transfected cells; host or cells: HeLa
Procedure: as §1

Question: Which “SF-1 activation in luciferase reporter assay” value [1] does the source give for `C=C(c1ccccc1)C12CCC(n3ccnn3)C1CC(CCCCCC)=C2c1ccccc1` (centres unmarked) [7N] here?
Answer: without activating SF-1

Question: What about the “LRH-1 activation in luciferase reporter assay” value [2] of the same compound?
Answer: activated LRH-1
